Measured values reported in article PMC1971568 (British Journal of Cancer, 1990).
Read-outs that look alike come from different tables or passages of the source.

Key:
[1] = Stability in phosphate buffered saline (pH 7.4) at 37C, HPLC; conditions: pH 7.4, 37C
[2] = for Ratio of AUCs, active drug (generated from prodrug) to unconverted prodrug: Table VII
[3] = Plasma protein binding, Centrifree micropartition filters, human plasma; conditions: 2.5 µg ml-1, ± s.e.
[4] = Plasma protein binding, Centrifree micropartition filters, mouse plasma; conditions: pooled mouse plasma, 2.5 µg ml-1, ± s.e.
[5] = Active drug levels after A5B7-F(ab')2:CPG2 followed by prodrug i.v. 6 days later, non-tumour bearing mice; conditions: prodrug 160 mg kg-1 i.v., Table VIII
[6] = system: human JAR choriocarcinoma cell line; conditions: ref Springer et al., 1990; cited from earlier work
[7] = plasma, conjugate then prodrug 16 mg kg-1 i.v. 72 h later, Table V

O=C(O)c1ccc(N(CCCl)CCCl)cc1
Half life in phosphate buffered saline [1]: 10 h
Time after prodrug injection at which active drug is measurable ([2]; all tissues, conjugate 1,000 U kg-1 given earlier): ≤ 5 min
Ratio of AUCs, active drug (generated from prodrug) to unconverted prodrug ([2]; kidney): 5.5
Ratio of AUCs, active drug (generated from prodrug) to unconverted prodrug ([2]; liver): 4.2
AUC of generated active drug in liver ([2]; liver, conjugate then prodrug 16 mg kg-1 i.v. 72 h later): 29 µg·h/g
Ratio of AUCs, active drug (generated from prodrug) to unconverted prodrug ([2]; lung): 1.3
t1/2 alpha, initial half life [2, 7]: 0.37 h
t1/2 beta, final half life [2, 7]: 2.71 h
Ratio of AUCs, active drug (generated from prodrug) to unconverted prodrug ([2]; tumour, prodrug assumed at limit of detection 0.2 µg h g-1): 29
Bound to plasma proteins [3]: 96%
AUC in liver (liver, 41 µmol kg-1 i.p. of the compound itself): 39 µg·h/g
t1/2 alpha, initial half life (plasma, 41 µmol kg-1 i.p.): 0.37 h
t1/2 beta, final half life (plasma, 41 µmol kg-1 i.p.): 1.61 h
Bound to plasma proteins [4]: 97%
Active drug level ([5]; liver, 5 min): 25.4 µg/g
Active drug level ([5]; liver, 15 min): 26.9 µg/g
Active drug level ([5]; liver, 30 min): 25.8 µg/g
Active drug level ([5]; lung, 5 min): 36.4 µg/g
Active drug level ([5]; lung, 15 min): 18.2 µg/g
Active drug level ([5]; lung, 30 min): 14.4 µg/g
Active drug level ([5]; plasma, 5 min): 133.0 µg/mL
Active drug level ([5]; plasma, 15 min): 49.0 µg/mL
Active drug level ([5]; plasma, 30 min): 40.5 µg/mL
Cytotoxicity to JAR cells relative to prodrug [6]: over 100 times
